Patent US7524487B2, “Compositions and methods for modulating interleukin-10” (University of Maryland, priority 2005, dated 2009)

Test system: bone marrow derived macrophages (BMMφ)
Assay: Cytokine ELISA on supernatants of stimulated bone marrow derived macrophages (LPS ± E-IgG)
Conditions: macrophages pretreated with 100 uM okadaic acid for 1 hour, then LPS plus or minus E-IgG

**Q.** How did the “IL-10 production in stimulated BMMφ after phosphatase inhibition” value turn out when `C=C1[C@@H](O)[C@@H]2O[C@]3(CC[C@H](/C=C/[C@@H](C)[C@@H]4CC(C)=C[C@@]5(O[C@H](C[C@@](C)(O)C(=O)O)CC[C@H]5O)O4)O3)CC[C@H]2O[C@@H]1[C@@H](O)C[C@H](C)[C@H]1O[C@@]2(CCCCO2)CC[C@H]1C` [Okadaic Acid] was run?
**A.** dramatically increases
